Results reported in patent US12570650B2, “6-substituted pyridazine compounds as SMARCA2 and/or SMARCA4 degraders” (Aurigene Oncology Limited, priority 2020, dated 2026).

Amino acid sequences for entries named in this document (tags omitted).
UniProt P51532, whole entry: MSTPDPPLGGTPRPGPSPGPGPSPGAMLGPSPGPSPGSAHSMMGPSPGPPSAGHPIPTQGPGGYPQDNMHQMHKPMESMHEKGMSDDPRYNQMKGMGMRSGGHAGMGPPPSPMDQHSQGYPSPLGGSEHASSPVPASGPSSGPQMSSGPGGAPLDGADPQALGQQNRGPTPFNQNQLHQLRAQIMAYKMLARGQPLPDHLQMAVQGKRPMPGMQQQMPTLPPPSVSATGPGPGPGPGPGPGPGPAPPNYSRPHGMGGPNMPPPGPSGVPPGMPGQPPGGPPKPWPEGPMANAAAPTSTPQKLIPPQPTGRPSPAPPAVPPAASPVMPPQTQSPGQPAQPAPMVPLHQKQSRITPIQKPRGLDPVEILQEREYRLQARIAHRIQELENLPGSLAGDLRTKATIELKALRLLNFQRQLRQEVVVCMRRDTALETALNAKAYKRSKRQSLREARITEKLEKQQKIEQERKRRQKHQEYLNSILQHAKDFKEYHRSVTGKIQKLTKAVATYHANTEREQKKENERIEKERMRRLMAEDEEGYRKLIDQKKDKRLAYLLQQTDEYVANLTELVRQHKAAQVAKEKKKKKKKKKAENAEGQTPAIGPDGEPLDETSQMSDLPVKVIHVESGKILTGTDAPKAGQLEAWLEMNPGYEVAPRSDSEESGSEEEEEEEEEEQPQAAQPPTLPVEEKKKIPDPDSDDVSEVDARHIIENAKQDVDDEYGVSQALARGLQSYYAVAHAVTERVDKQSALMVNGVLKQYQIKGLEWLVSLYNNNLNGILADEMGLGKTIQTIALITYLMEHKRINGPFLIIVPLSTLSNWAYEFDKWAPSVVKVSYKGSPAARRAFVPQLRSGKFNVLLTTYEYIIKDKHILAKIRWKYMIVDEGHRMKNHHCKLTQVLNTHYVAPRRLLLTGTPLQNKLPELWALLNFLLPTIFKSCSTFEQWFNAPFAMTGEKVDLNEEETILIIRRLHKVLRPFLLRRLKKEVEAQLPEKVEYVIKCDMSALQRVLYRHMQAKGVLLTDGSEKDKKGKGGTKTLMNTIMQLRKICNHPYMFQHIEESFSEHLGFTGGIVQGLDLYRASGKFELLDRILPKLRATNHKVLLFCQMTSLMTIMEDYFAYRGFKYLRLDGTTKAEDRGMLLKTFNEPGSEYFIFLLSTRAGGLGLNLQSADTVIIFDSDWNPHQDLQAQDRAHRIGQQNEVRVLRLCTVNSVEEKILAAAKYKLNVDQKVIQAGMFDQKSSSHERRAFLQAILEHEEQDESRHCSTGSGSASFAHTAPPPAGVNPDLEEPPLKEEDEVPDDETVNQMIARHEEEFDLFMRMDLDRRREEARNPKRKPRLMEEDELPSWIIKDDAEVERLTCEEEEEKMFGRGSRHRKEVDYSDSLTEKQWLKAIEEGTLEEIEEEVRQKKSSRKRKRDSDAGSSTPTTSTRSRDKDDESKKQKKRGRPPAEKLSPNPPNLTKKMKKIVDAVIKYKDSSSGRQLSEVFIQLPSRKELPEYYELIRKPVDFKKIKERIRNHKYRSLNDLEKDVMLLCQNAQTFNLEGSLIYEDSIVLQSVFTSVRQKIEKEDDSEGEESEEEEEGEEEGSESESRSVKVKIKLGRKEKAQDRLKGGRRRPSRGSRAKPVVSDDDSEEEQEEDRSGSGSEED

Biological target: T1, SMARCA4 (Homo sapiens, UniProt P51532)
T1 construct: Determination of SMARCA2 and SMARCA4 Degradation in VCaP Cells by Western Blot; endogenous in cells; host or cells: VCaP (ATCC CRL-2876)
Test: SMARCA4 degradation in VCaP cells by Western blot
Assay type: cell-based
Details: 16 hours
Experimental: On the third day, compounds of present invention were added to cells from 10 mM stocks made in DMSO (Sigma Cat no. D2650). Each concentration of compound was tested with DMSO not exceeding final percentage of 0.3 in the cells. […] Equal amount of protein was loaded on SDS PAGE gel for electrophoresis. […] Percentage of SMARCA2 or SMARCA4 degradation was calculated using formula % Degradation=100−(normalized band intensity in treated sample/normalized band intensity in DMSO sample)*100.

Compound | Percent degradation (at 100 nM) SMARCA4 [%]
Cc1ncsc1-c1ccc([C@H](C)NC(=O)[C@@H]2C[C@@H](O)CN2C(=O)C(c2cc(OCCOc3ccc(-c4cnnc(-c5ccccc5O)c4)cc3)no2)C(C)C)cc1 (mixture of isomers) [Compound 42, (2S,4R)-4-hydroxy-1-(2-(3-(2-(4-(6-(2-hydroxyphenyl)pyridazin-4-yl)phenoxy)ethoxy)isoxazol-5-yl)-3-methylbutanoyl)-N-((S)-1-(4-(4-methylthiazol-5-yl)phenyl)ethyl)pyrrolidine-2-carboxamide] | 0
Cc1ncsc1-c1ccc([C@H](C)NC(=O)[C@@H]2C[C@@H](O)CN2C(=O)[C@@H](NC(=O)CN2CCC(Nc3ccc(-c4cnnc(-c5ccccc5O)c4)cc3)CC2)C(C)(C)C)cc1 [Compound 45, (2S,4R)-4-hydroxy-1-((S)-2-(2-(4-((4-(6-(2-hydroxyphenyl)pyridazin-4-yl)phenyl)amino)piperidin-1-yl)acetamido)-3,3-dimethylbutanoyl)-N-((S)-1-(4-(4-methylthiazol-5-yl)phenyl)ethyl)pyrrolidine-2-carboxamide] | 57
